Results: ChEMBL document CHEMBL5380874, “Transformation of a Dopamine D2 Receptor Agonist to Partial Agonists as Novel Antipsychotic Agents” (J Med Chem, 2023)
The source made the active and inactive calls. The calls are words filed in the database; no cut-off is given here.

By UniProt entry, the sequences of proteins in these tests, tags left out.
UniProt P21728, whole entry: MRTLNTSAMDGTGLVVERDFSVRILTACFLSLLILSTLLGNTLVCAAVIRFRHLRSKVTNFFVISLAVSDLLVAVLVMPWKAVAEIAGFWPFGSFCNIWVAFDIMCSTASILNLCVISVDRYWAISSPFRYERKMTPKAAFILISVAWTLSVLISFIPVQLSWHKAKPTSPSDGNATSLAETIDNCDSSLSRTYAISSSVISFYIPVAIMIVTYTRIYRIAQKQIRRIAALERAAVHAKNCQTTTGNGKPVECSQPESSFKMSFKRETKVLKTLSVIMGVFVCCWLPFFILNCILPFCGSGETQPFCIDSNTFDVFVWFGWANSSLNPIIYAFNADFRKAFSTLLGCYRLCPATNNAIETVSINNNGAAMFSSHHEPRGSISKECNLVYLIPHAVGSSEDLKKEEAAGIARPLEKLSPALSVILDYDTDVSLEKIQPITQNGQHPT

Tests used:
D(1A) dopamine receptor [1] = biological target: T1, D(1A) dopamine receptor (Homo sapiens, UniProt P21728); assay: Partial agonist activity at Dopamine D1 receptor (unknown origin) expressed in HEK293T coexpressing beta-arrestin-2 assessed as maximal cAMP accumulation incubated for 5 mins by beta-arrestin recruitment based BRET assay relative to control; type: functional, cell-based
D(1A) dopamine receptor [2] = biological target: T1, D(1A) dopamine receptor; assay: Partial agonist activity at Dopamine D1 receptor (unknown origin) expressed in HEK293T co-expressing G-alphaS assessed as maximal cAMP accumulation incubated for 5 mins by BRET assay relative to control; type: functional, cell-based

`COc1cccc2c3c(oc12)CN(CCCCOc1ccc2ccc(=O)[nH]c2c1)CC3` was tested, and the Emax (D(1A) dopamine receptor [1]) was “inactive” and the Emax (D(1A) dopamine receptor [2]) was “inactive”.
With `COc1cccc2c3c(oc12)CN(CCCCOc1ccc2c(c1)NC(=O)CC2)CC3` the Emax (D(1A) dopamine receptor [1]) was “inactive” and the Emax (D(1A) dopamine receptor [2]) was “inactive”.
